Screens from PubChem BioAssay.
RAD52 anneal inh – RAD52 (human) annealing inhibition. P43351. recombinant RAD52 DNA annealing, FRET fluorescence. inhibition, % at 18.7 µM. 360,000 compounds, 0.46% hits. AID 651710;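 active = every replicate showing at least 50% inhibition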
MLL AF4-AF9 inh – blocks AF4 peptide binding to human AF9; inhibition, % at 10 µM; AlphaScreen, biotin-AF4 peptide binding to FLAG-AF9; 350,000 compounds, 0.47% hits;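 active = every replicate reaching a set inhibition limit, whatever the replicate mean, cut at about 25% in these data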
RAD54 branch – blocks human RAD54 Holliday junction branch migration; FAM/BHQ fluorescence; inhibition, % at 10.4 µM; 360,000 compounds, 0.14% hits; AID 602329;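 active = mean normalized replicate activity at least 40 and at least half of replicates scoring 40 or more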;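 also: inhibitors cause a drop in the FAM fluorescence signal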
E-sel inducer – E-selectin induction on HUVECs; P16581; HUVEC E-selectin immunofluorescence imaging; normalized: neutral wells 0, TNF-alpha wells 100; 260,000 compounds, 0.37% hits; activation, % at 7.58 µM;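 active = mean E-selectin-positive cell signal at least 10% of the positive control, reached in at least 60% of replicates, without over 20% cell loss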
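Test system: HUVEC; input: 3,000 HUVEC/well; measured by: immunofluorescence imaging; read-out: % PE-positive cells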
SIRT5 block – sirtuin-5 (human) deacylase inhibition. Q9NXA8. Purified SirT5, succinyl-peptide AMC, trypsin-coupled fluorescence. inhibition, % at 15 µM. 330,000 compounds, 1.1% hits; in the data active = inhibition above about 15%
UUG fidelity – modulators of start codon recognition fidelity in yeast; S. cerevisiae UUG-firefly luciferase reporter, luminescence/redox ratio; activity score, % at 18.7 µM; hit rate 0.13% among 350,000; AID 602363;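 active = replicate mean at a twofold rise or more, about +100% in these data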;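 note: firefly luciferase made from a UUG start codon reports start codon fidelity; reporter light over untreated wells divided by growth signal over untreated wells; some hits fall short of that in this replicate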
Hits are given with their value; - = inactive; . = no result given. Hits are enriched below; roughly 1.8% of the tested compounds scored in any of these assays.

SMILES	RAD52 anneal inh	MLL AF4-AF9 inh	RAD54 branch	E-sel inducer	SIRT5 block	UUG fidelity
C[C@@H]1CN([C@@H](C)CO)C(=O)c2c(c3ccccc3n2C)-c2ccccc2CO[C@@H]1CN(C)Cc1ccc2c(c1)OCO2	-	-	.	-	20.2	.
C[C@H]1CN([C@@H](C)CO)C(=O)CCCn2cc(nn2)CO[C@@H]1CN(C)Cc1cccc(C(F)(F)F)c1	-	-	-	-	-	-
COc1ccc(NC(=O)Nc2ccc3c(c2)C(=O)N(C)C[C@H](OC)[C@@H](C)CN[C@@H](C)CO3)cc1	.	.	-	-	.	.
C[C@@H]1CN([C@@H](C)CO)C(=O)c2c(c3ccccc3n2C)-c2ccccc2CO[C@@H]1CN(C)Cc1ccc(O)cc1	-	-	.	-	-	.
C[C@H]1CN([C@@H](C)CO)C(=O)c2c(c3ccccc3n2C)-c2ccccc2CO[C@H]1CN(C)Cc1ccc2c(c1)OCCN2C	-	43.6	.	-	-	.
O=C(C[C@@H]1C=C[C@H](NC(=O)Nc2cccc(F)c2)[C@@H](CO)O1)NCC1CCCCC1	-	-	-	-	-	.
COc1ccc(C)cc1NC(=O)C(NCC(O)c1ccccc1)c1ccccc1 (stereo not given)	-	-	-	51.7	-	-
COc1ccc(C)cc1NC(=O)C(OC(=O)CNC(=O)c1cc(C)cc(C)c1)c1ccccc1 (stereo not given)	-	-	.	.	-	.
COc1ccc(Cl)cc1NC(=O)c1cccc(NC(=O)CCC(=O)O)c1	-	-	-	-	18.7	-
COc1ccc(C)cc1NC(=O)c1cccc(C(=O)Nc2cc(C)ccc2OC)c1	-	-	-	-	15.8	-
O=C(Cc1cccnc1)N1CC2(C1)[C@@H](c1ccccc1)[C@@H](CO)N2C(=O)C1CCCCC1	-	-	.	-	-	.
COCC#Cc1ccc2c(c1)O[C@@H](CN(C)C(=O)Nc1ccccc1F)[C@@H](C)CN([C@@H](C)CO)S2(=O)=O	-	-	-	-	-	-
CCN(CC)c1ccc(NC(=O)CN(C)Cc2cccs2)cc1	-	27.4	-	-	-	-
COc1ccccc1-c1c(C)nn2c(NCCN3CCCC3)cc(C)nc12	-	-	-	94.4	-	-
COC(=O)Cc1[nH]nc2c1C(c1cc(OC)c(OC)c(OC)c1)C(C#N)=C(N)O2 (stereo not given)	-	-	-	-	-	-
COC(=O)Cc1[nH]nc2c1C(c1ccc(O)c(OC)c1)C(C#N)=C(N)O2 (stereo not given)	-	29.5	-	-	-	-
O=C(O)c1cccc2cccc(-c3c4ccc(=O)c(O)c-4oc4c(O)c(O)ccc34)c12	-	-	.	-	36.7	.
CS(=O)c1ccccc1O (stereo not given)	-	-	-	.	-	-
O=S(c1ccccc1O)S(=O)c1ccccc1O (stereo not given)	-	-	.	.	25.8	.
CCOc1ccc2nc(SCC(=O)NCc3ccc(OC)cc3)[nH]c2c1	-	-	-	-	26.9	-
COc1ccc2nc(SCC(=O)NCc3ccccc3)[nH]c2c1	-	-	-	-	-	-
O=C(CSc1nc2ccsc2c(=O)n1CC1CCC(C(=O)O)CC1)c1ccc(Cl)cc1 (stereo not given)	-	-	.	.	16.1	.
O=C(CSc1nc2ccsc2c(=O)n1CC1CCC(C(=O)O)CC1)c1ccc(F)cc1 (stereo not given)	-	-	-	-	-	-
CN(C)c1ccc(C(CNC(=O)COc2ccc(Cl)cc2)N2CCCC2)cc1 (stereo not given)	-	25.8	-	.	-	-
O=C(C[C@H]1CC[C@@H]2[C@H](COC[C@@H](O)CN2Cc2nccs2)O1)NCc1ccc(Oc2ccccc2)cc1	-	-	-	-	-	.
COc1ccc(S(=O)(=O)N(C)C[C@@H]2OCCCC[C@H](C)Oc3ccc(NS(=O)(=O)c4ccc(C)cc4)cc3C(=O)N([C@@H](C)CO)C[C@@H]2C)cc1	-	-	-	-	20.2	-
COc1ccc(S(=O)(=O)Nc2ccc3c(c2)C(=O)N([C@@H](C)CO)C[C@@H](C)[C@H](CN(C)S(=O)(=O)c2ccc(C)cc2)OCCCC[C@@H](C)O3)cc1	-	-	-	.	18.5	-
COc1ccc(S(=O)(=O)Nc2ccc3c(c2)C(=O)N([C@@H](C)CO)C[C@@H](C)[C@@H](CN(C)S(=O)(=O)c2ccc(C)cc2)OCCCC[C@@H](C)O3)cc1	-	-	-	.	-	-
